From patent US20050289662A1, “Reporter system for plants” (published 2005) come the findings set out here.

This experiment deals with GSH1-LUC-E9 construct in the BrC line. Nature of the experiment: GSH1 promoter induction in leaves of GSH1-LUC-E9 plants, imaging with N2 cooled CCD camera. The conditions noted are these: leaves of (t2) plants treated for 30 min with 100 μM, H2O as control.

As to cadmium, the “induction of the GSH1 promoter (LUC imaging)” value is “induction of the promoter”.
As for cupper, the “induction of the GSH1 promoter (LUC imaging)” value was “induction of the promoter”.
